Patent US20260234188A1, “CHEMOKINE-BINDING PEPTIDES” (OXFORD UNIVERSITY INNOVATION, published 2026)

Target: T1, CCL8_HUMAN (human, UniProt P80075 24-99)
T1 sequence (looked up): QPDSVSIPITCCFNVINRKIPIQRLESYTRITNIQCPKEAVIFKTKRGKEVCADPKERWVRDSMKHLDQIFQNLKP

B1: HIS:SUMO:HD2 fusion protein (other)
peptide: EEDDYTAYAPLTCYFT
B1 gave a Kd of 143 nM.
